Measurements reported in US11319366B2, “Antibody facilitating programmed necrosis of cells and application thereof” (SHANGHAI JW INFLINHIX CO., LTD., priority 2015, dated 2022).

Tested on: L929 cells
Assay: Apoptosis and necrosis assay (live/dead staining, active caspase-3, flow cytometry) in L929 cells
Type: cell-based, mouse
Conditions: TNF alone or antibody added with TNF
Experimental: Cells were incubated overnight (or for times as indicated in the figures) in the presence of TNF[…] (Immunotools, Friesoythe, Germany) or TNF peptides with or without 20 μM z-VAD-FMK (R & D Systems, Minneapolis, Minn.) or 20 μM Necrotatin-1 (PeproTech, Rocky Hill, N.J.). In some experiments, TNF[…] and □ cells were co-cultured with monoclonal antibodies or synovial fluids at the indicated concentration. The cells were stained with live/dead cell staining kits (Invitrogen, Paisley, UK) instructed by the manufacturer's manual and fixed using cytofix/cytoperm fixation/permeabilization solution kits (BD Pharmingen, Oxford, UK). This was followed by intracellular staining with FITC-conjugated anti-caspase-3 antibody (Cell Signaling Technology, Danvers, Mass., USA). Cells were acquired on a CyAn flow cytometer (Beckman Coulter, Fullerton, Calif.) and data were analyzed using Flowjo (Tree Star Inc. Ashland, Oreg.).

For “TNF: cytokine purchased from Immunotools, used as stimulus [reference compound]”, the “cell fate (apoptosis / survival / necrosis) of L929 cells” value was “induced cell apoptosis”.
